This note sets out measurements from US5280014A, “Treatment of obesity and essential hypertension and related disorders” (Amylin Pharmaceuticals, Inc., priority 1991, dated 1994).

The test system of this experiment is isolated soleus muscle from rats. The experiment in a line: amylin antagonist assay: incorporation of radiolabelled glucose into glycogen in isolated soleus muscle. It is filed as cell-based, rat. The following applies: 1000 μU/mL insulin, 20 nM amylin, antagonist 1 nM-10 μM. As for the experimental part: Insulin was obtained as Humulin-R, 100 U/mL, recombinant human insulin (Eli Lilly, Indianapolis, Ind.). […] An antagonist assay was performed in vitro using the isolated soleus muscle from rats.
The right and left soleus muscles of 4-hour fasted rats were removed immediately after decapitation of the animals, divided in half and temporarily placed in physiological saline. Muscles were assigned to different treatment groups so that the 4 muscle pieces from each animal were evenly distributed among the 9 flasks representing the different assay conditions. […] Pharmacologically active agents were added to the 10mL of medium to result in the above stated concentrations and mixtures. […]
Dissolved glycogen was precipitated out by addition of 3 mL absolute ethanol and cooling to -20° C. overnight. […] The remaining glycogen was redissolved in water and scintillation fluid and counted for ^14 C.
From a knowledge of the specific activity of ^14 C-glucose in the 5.5 mM glucose of the incubation medium, and the total ^14 C counts remaining in the glycogen extracted from each muscle, it was possible to determine the net rate of glycogen synthesis over the final 60 minute incubation period. This was normalized per mass of muscle and expressed as μmoles of glucosyl units incorporated into glycogen per hour per gram of muscle. […]

Regarding `CC(C)C[C@H](NC(=O)CNC(=O)[C@H](C)NC(=O)[C@H](CC(C)C)NC(=O)[C@H](CCCNC(=N)N)NC(=O)[C@H](Cc1c[nH]cn1)NC(=O)[C@@H](NC(=O)[C@@H](N)C(C)C)[C@@H](C)O)C(=O)N[C@@H](CC(C)C)C(=O)N[C@@H](CO)C(=O)N[C@@H](CCCNC(=N)N)C(=O)N[C@@H](CO)C(=O)NCC(=O)NCC(=O)N[C@H](C(=O)N[C@H](C(=O)N[C@@H](CCCCN)C(=O)N[C@@H](CC(N)=O)C(=O)N[C@@H](CC(N)=O)C(=O)N[C@@H](Cc1ccccc1)C(=O)N[C@H](C(=O)N1CCC[C@H]1C(=O)N[C@H](C(=O)N[C@@H](CC(N)=O)C(=O)N[C@H](C(=O)NCC(=O)N[C@@H](CO)C(=O)N[C@@H](CCCCN)C(=O)N[C@@H](C)C(=O)N[C@@H](Cc1ccccc1)C(N)=O)C(C)C)[C@@H](C)O)C(C)C)C(C)C)C(C)C` [CGRP8-37, 8-37 human CGRP], the “increment in the rate of glycogen synthesis from the amylin-inhibited level” value is given as “about 115%”.
